The target of the assay is human GLP-1R (glucagon-like peptide-1 receptor) (human) (UniProt P43220).

Sequences of proteins named here, by UniProt entry; tags and fusion partners are left off. Residues count along the entry.
UniProt P43220, 24-463: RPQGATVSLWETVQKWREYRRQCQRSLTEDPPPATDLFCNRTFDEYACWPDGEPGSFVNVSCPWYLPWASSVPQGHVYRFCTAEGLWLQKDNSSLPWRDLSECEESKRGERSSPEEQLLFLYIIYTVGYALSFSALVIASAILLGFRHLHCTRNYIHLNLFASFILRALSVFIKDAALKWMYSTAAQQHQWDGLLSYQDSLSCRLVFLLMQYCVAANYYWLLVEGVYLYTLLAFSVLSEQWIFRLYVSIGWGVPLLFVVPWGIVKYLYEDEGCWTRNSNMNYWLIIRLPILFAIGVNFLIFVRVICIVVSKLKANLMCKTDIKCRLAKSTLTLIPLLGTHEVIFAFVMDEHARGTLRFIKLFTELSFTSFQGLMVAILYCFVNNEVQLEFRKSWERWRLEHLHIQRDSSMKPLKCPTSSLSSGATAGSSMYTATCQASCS

“Native GLP-1 (glucagon-like peptide-1) (ligand)”: the EC50 of cAMP accumulation in CHO-K1 cells expressing human GLP-1R was determined as 4.1 pM.

The values above are taken from article PMC10896721.
